Data on one compound can be found in patent US4820703A, “PAF-antagonistic thienotriazolodiazepine compounds and pharmaceutical uses thereof” (Yoshitomi Pharmaceutical Industries Ltd., priority 1986, dated 1989).

The subject of this assay is PAF-induced lethal shock. As to the kind of experiment: Effect on PAF-induced lethal shock in mice. It is filed as in vivo, mice (male ICR). The following applies: 80 μg/kg PAF i.v., 24 hours. On the procedure: The experiment was carried out according to the method of Young et al. described in Prostaglandins, vol. 30, p. 545 (1985). Groups of 9 to 15 male ICR mice (Charles River) weighing 25-30 g were used. 80 μg/kg of PAF (Serdary Research Lab.) solution was intravenously administered in a lateral tail vein 1 hour after the oral administration of test compound (0.1 ml/10 g). […] Results were given as number of survivors/number of employed animals and survival rates (%) in Table 3.

With `CCc1cc2c(s1)-n1c(C)nnc1CN=C2c1ccccc1Cl` [Etizolam, 6-(o-chlorophenyl)-8-ethyl-1-methyl-4H-s-triazolo[3,4-c]thieno[2,3-e][1,4]diazepine, reference compound], the Survival rate was 9.1% (1.0 mg/kg p.o.), 27.3% (3.0 mg/kg p.o.) and 54.5% (10.0 mg/kg p.o.). The “number of survivors/number of employed animals” value is, setting by setting: (1.0 mg/kg p.o.) 1/11; (3.0 mg/kg p.o.) 3/11; (10.0 mg/kg p.o.) 6/11.
